## AlphaSeq binding of Ab-14 heavy chain variants to a spike HR2 peptide

Values reported by Engelhart et al. 2022, doi:10.1038/s41597-022-01779-4 (FLAb copy).

Target peptide (SARS-CoV-2 spike, HR2 region): PDVDLGDISGINAS

The variants keep the light chain, the linker and the frameworks of Ab-14 (scFv order VH, a 15-residue (Gly4Ser)3 linker, VL).
VH: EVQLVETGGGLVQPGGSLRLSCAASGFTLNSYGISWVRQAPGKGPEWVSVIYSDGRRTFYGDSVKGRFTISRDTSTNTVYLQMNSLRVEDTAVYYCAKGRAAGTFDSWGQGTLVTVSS
VL: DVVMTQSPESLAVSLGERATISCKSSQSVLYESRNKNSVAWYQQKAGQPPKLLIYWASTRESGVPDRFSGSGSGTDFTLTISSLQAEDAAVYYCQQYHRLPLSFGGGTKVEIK

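The starting antibody came from a phage panning campaign against this peptide. Library AAYL49 holds single substitutions and randomly drawn double and triple substitutions in the CDRs. In AlphaSeq, yeast of one mating type display the scFv and yeast of the other type display the target. Mating (16 h, 30 °C) was followed by selection of diploids and sequencing of their barcodes. A regression on co-assayed BCL2-family reference pairs converts the normalised counts of each replicate to an apparent Kd. There are three technical replicates.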

Sequences are complete VH domains.
All variants listed here change G99 of the VH, counted from its first residue.
Each Kd is an estimate from the mating assay, the geometric mean of the replicates in which the pair was seen; lower is stronger.
An entry "nd" has no value in the source: the pair was not observed among the diploids in any replicate. This suggests poor binding but is not conclusive.
In this assay the parent's reference entry averaged 4.4 nM; its copy inside this library read 13 µM (one replicate of three).
As a blank, each scFv also met three strains without target: over library AAYL49, 15% of these pairings were detected, typically at 11 µM and seldom below 680 nM. For each scFv, signals with the empty controls are counted beside the result.

The variant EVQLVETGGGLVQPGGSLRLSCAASGFTLNSYGISWVRQAPGKGPEWVSQIYSDGRRTFYGDSVKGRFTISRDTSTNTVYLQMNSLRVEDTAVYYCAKWEAAGTFDSWGQGTLVTVSS showed 12 µM (1 of 3 replicates; controls 1 of 9). For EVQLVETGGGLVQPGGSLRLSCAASGFTLNSYGISWVRQAPGKGPEWVSVIYSDGYRTFYGDSVKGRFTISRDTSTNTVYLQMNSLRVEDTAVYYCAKSRAANTFDSWGQGTLVTVSS, the assay gave 16 nM (3 of 3 replicates; controls 1 of 9). For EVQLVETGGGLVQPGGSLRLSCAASGFTLNSYGISWVRQAPGKGPEWVSQIYSDGYRTFYGDSVKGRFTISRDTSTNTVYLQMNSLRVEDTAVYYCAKYRAAGTFDSWGQGTLVTVSS, the assay gave nd (0 of 3 replicates; controls 1 of 9). The variant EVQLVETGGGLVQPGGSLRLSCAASGFTLNSYGISWVRQAPGKGPEWVSGIYSDGWRTFYGDSVKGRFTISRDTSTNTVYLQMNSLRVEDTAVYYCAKVRAAGTFDSWGQGTLVTVSS gave 6.4 µM (2 of 3 replicates; controls 4 of 9). With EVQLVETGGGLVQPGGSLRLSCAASNFTLTSYGISWVRQAPGKGPEWVSVIYSDGRRTFYGDSVKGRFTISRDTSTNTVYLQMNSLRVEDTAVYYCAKARAAGTFDSWGQGTLVTVSS the result was 39 µM (2 of 3 replicates; controls 6 of 9). The variant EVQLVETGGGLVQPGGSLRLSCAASGFTLNSYGISWVRQAPGKGPEWVSVINSDGRRTFYGDSVKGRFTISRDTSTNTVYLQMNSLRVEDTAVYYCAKHRAAGMFDSWGQGTLVTVSS showed nd (0 of 3 replicates; controls 1 of 9). The variant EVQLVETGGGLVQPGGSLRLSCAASGFTLNSYGISWVRQAPGKGPEWVSVIYSDGRRTFYGDDVKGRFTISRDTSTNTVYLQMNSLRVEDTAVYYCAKDRDAGTFDSWGQGTLVTVSS gave 3.5 µM (1 of 3 replicates; controls 5 of 9).

With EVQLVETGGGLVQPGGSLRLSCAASGFTLNEYGISWVRQAPGKGPEWVSVIYSDGRRTFYGDSVKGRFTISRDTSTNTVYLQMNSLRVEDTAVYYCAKRRAAGTFDFWGQGTLVTVSS the result was nd (0 of 3 replicates; controls 2 of 9). The variant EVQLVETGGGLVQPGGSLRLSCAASGFTLNSYGISWVRQAPGKGPEWVSQIYSDGRRTFYGDSVKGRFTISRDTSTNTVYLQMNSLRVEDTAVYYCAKERAAGTFDHWGQGTLVTVSS showed nd (0 of 3 replicates; controls 0 of 9). With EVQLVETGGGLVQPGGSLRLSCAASTFTLNSYGISWVRQAPGKGPEWVSVIYSDGRRTIYGDSVKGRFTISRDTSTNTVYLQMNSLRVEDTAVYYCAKHRAAGTFDSWGQGTLVTVSS the result was 15 µM (1 of 3 replicates; controls 0 of 9). For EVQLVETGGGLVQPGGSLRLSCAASGFTLNSHGISWVRQAPGKGPEWVSVIYSDGRRTFYGDSVKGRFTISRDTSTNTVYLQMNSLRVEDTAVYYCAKFRAAGTFQSWGQGTLVTVSS, the assay gave 1.4 µM (3 of 3 replicates; controls 4 of 9). For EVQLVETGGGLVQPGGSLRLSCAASGFTLNFYGISWVRQAPGKGPEWVSVINSDGRRTFYGDSVKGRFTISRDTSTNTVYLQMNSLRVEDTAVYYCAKMRAAGTFDSWGQGTLVTVSS, the assay gave 420 µM (2 of 3 replicates; controls 6 of 9). With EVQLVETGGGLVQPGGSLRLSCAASGFTLNSYGISWVRQAPGKGPEWVSVIYSDGMRTFYFDSVKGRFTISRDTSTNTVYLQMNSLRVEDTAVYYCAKTRAAGTFDSWGQGTLVTVSS the result was 7.3 µM (3 of 3 replicates; controls 2 of 9). With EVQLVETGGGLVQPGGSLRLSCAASGFTLNSYGISWVRQAPGKGPEWVSVIYSDGRRTFYGDSHDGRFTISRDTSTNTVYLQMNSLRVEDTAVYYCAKFRAAGTFDSWGQGTLVTVSS the result was 360 µM (2 of 3 replicates; controls 2 of 9).

The variant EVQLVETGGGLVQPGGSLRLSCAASGFTLNSYGISWVRQAPGKGPEWVSLIYSDGRRTFYGDSVKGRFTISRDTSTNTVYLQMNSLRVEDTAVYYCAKERAAGCFDSWGQGTLVTVSS gave 1.8 µM (1 of 3 replicates; controls 1 of 9). The variant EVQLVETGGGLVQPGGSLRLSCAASGFTLNSWGISWVRQAPGKGPEWVSVIYSDGRRTFYGDSVKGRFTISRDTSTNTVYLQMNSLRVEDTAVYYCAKHRAAGTFDSWGQGTLVTVSS showed nd (0 of 3 replicates; controls 2 of 9). For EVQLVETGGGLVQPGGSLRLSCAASGFTLNSYGISWVRQAPGKGPEWVSVIYSVGRRTFYGDMVKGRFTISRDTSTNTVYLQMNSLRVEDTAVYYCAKTRAAGTFDSWGQGTLVTVSS, the assay gave nd (0 of 3 replicates; controls 0 of 9). For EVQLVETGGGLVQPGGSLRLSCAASGFTLNSYGISWVRQAPGKGPEWVSVIYSDHRRTFYDDSVKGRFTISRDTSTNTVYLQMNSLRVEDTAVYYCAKDRAAGTFDSWGQGTLVTVSS, the assay gave 14 µM (1 of 3 replicates; controls 2 of 9). The variant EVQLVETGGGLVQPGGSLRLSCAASGFTLNSYGISWVRQAPGKGPEWVSVIYSDGRRTFDGDSVKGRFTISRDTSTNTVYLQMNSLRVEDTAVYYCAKKRAAGTFGSWGQGTLVTVSS gave nd (0 of 3 replicates; controls 1 of 9).

Picked from the list: the 3 lowest averages where every replicate gave a value.

Variant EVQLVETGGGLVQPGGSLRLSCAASGFTLNSYGISWVRQAPGKGPEWVSVIYSDGYRTFYGDSVKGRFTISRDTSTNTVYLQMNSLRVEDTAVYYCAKSRAANTFDSWGQGTLVTVSS gave 16 nM (3 of 3 replicates; controls 1 of 9).
Variant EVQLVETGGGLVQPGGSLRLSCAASGFTLNSHGISWVRQAPGKGPEWVSVIYSDGRRTFYGDSVKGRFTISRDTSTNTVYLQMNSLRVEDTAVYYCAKFRAAGTFQSWGQGTLVTVSS gave 1.4 µM (3 of 3 replicates; controls 4 of 9).
Variant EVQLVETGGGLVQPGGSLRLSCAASGFTLNSYGISWVRQAPGKGPEWVSVIYSDGMRTFYFDSVKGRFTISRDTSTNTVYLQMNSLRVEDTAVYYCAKTRAAGTFDSWGQGTLVTVSS gave 7.3 µM (3 of 3 replicates; controls 2 of 9).